Assays:
SMAD-1, SMAD-1/5 = test: SMAD phosphorylation western blot in hMSCs; type: cell-based, human; settings: 45 min
Description: (§1) Human bone marrow mesenchymal stem cells (hMSCs) from Promocell were maintained in basal media (αMEM, 10% FBS, 1% P/S, 1% fungizone, 2 mM L-glutamine, 1 ng/ml FGF-2) at 37° C. with 5% CO2. Cells were seeded onto the materials at 10^4 cells/cm2 using seeding media (DMEM high glucose, 1% P/S, 1% FBS,) and media were changed twice a week. For all cultures the first 2 hours (initial cell adhesion) were in absence of serum and GF. Cells were used at passages P0-P3. Each experiment was performed in triplicate.
Cell lysates (RIPA buffer) after 45 minutes of culture were used. 10 μg of proteins were collected per sample. Western blot assays were run in denaturalising conditions for SMAD-1, SMAD-1/5 and GAPDH. NuPAGE 4-12% bis-tris gels were purchased from LifeTechnologies. pSMADDs antibodies (pSMAD-1 & pSMAD-1/5) were obtained from Cell Signaling Technology (12656, 1:1000). As secondary antibody an antirabbit IgG antibody (Cell Signaling Technology, #7074, 1:2000) was used. A substrate for sensitive immunodetection system (Novex, Life Technologies) was used prior to exposing the blot to X-ray. Protein expression was quantified by image analysis using ImageJ.

[1] = test system: Human bone marrow mesenchymal stem cells (hMSCs); test: Alkaline phosphatase staining of hMSCs; type: cell-based; settings: 28 days, BMP-2 bound on FN on PEA vs soluble administration
Description: as §1
Cells were cultured on materials for 28 days. Noggin (50 ng/ml) was added in a set of samples and phosphate deposition was analysed by an Alkaline Phosphatase assay (Sigma, 86C-1KT). Cells were fixed with the fixative solution (citrate-acetone-formaldehide solution) at RT for 30 s. Afterwards, samples were stained with the alkaline-dye mixture and incubated at RT in darkness for 15 min. Samples were counterstained for 2 minutes with neutral red solution and rinsed in tap water.

SMAD-1, SMAD-5 = test: SMAD expression by qPCR in hMSCs; type: cell-based, human; settings: 5 days, absorbed or soluble format
Description: as §1
RNA extraction was performed after 5 days of cell culture. Cells were lysed and total RNA extracted using a Qiagen RNeasy micro kit (DNase treatment included) and the quantity and integrity of the RNA was measured with NanoDrop (ThermoScientific). Real-time qPCR was carried out and analysed to assess the expression of SMAD-1, SMAD-5 and GAPDH. Briefly, RNA samples were reverse transcribed using the QuantiTect Reverse Transcription (Applied Biosystems). Real-time qPCR was carried out using SYBR® Select Master Mix (Life Technologies) and the 7500 Real Time PCR system from Applied Biosystems. GAPDH served as the house-keeping gene, and expression for the genes of interest was normalized to GAPDH expression. […] The comparative cycle-threshold method was used for quantification of gene expression. The relative transcript levels were expressed as mean±standard deviation (n=3 for each group).

ERK 1/2 = test: Phosphorylated ERK 1/2 phospho-ELISA in hMSCs; type: cell-based, human; settings: 45 min, BMP-2 sequestered on FN fibrils vs soluble BMP-2 in medium
Description: as §1
Phosphorylated ERK 1/2 was quantified using phospho-ELISA kits. Briefly, ELISA plates were coated with a capture antibody for ERK 1/2 and then incubated with cell lysates after 45 minutes of cell culture. Phosphorylated states were detected with an anti-phospho-tyrosine antibody and normalised to a standard according to manufacturer instructions (DYC1018B, R&D Systems).

[2] = test system: integrin β1 and BMP-2 receptor BMPRIA; test: Co-immunoprecipitation of integrin β1 and BMPRIA; type: cell-based, human; settings: hMSCs, 45 min; BMP-2 presented via the FN network assembled on PEA
Description: as §1
After 45 minutes of cell culture, cell lysates (RIPA buffer) were used to perform immunoprecipitation of integrin β1 and BMP-2 receptor BMPRIA. 15 μg of protein were collected using NanoDrop (ThermoScientific). First, an integrin β1 antibody (Abcam, 183666, 10 ul/reaction) was used together with protein A-agarose beads (SantaCruz Biotechnology, sc-2001). Then, after denaturation and elution of beads, samples were run in NuPAGE 4-12% bis-tris gels (Life Technologies). A mouse BMPRIA antibody was used to probe the membrane (Abcam, 166707, 1:1000). An anti-mouse secondary antibody was used (SantaCruz Biotechnology, sc-2031, 1:5000). The enhanced chemiluminescence detection system (GE Healthcare) was used prior to exposing the blot to X-ray.

[3] = test system: Human bone marrow mesenchymal stem cells (hMSCs); test: Osteogenic differentiation of hMSCs (qPCR and immunofluorescence for osteocalcin, osteonectin); type: cell-based; settings: 14 days, BMP-2 adsorbed on FN fibrils on PEA vs soluble GF
Description: as §1
After 14 days of culture cells were washed in DPBS and fixed with 4% formaldehyde in DPBS at 37° C. for 15 minutes. Afterwards, the samples were rinsed in DPBS and a permeabilising buffer (10.3 g sucrose, 0.292 g NaCl, 0.06 g MgCl2, 0.476 g Hepes buffer, 0.5 mL Triton X, in 100 mL PBS, pH 7.2) was added at 4° C. for 5 minutes. The samples were then saturated with 1% BSA/DPBS at 37° C. for 5 minutes. […] A Zeiss fluorescence microscope was used for imaging.
Cells were cultured on materials for 14 days. Following the same procedure as for SMAD protein expression, osteogenesis differentiation was analysed to assess the expression of osteocalcin (OCN) and osteonectin (ON) using GAPDH to normalize gene expression.

[4] = Release/stability of adsorbed BMP-2 by sandwich ELISA; type: physicochemical; settings: from FN-coated PEA and PMA surfaces, after 14 days
Description: Both on bare or FN coated surfaces, the amount of non-adsorbed growth factor remaining in the supernatant was measured via a sandwich ELISA (DY355, R&D) following manufacturer instructions. The standard curve was calculated using a 4-PL curve-fit (Prism). For stability studies, the release of the BMP-2 was measured at 10 different time points (2 h, 1, 2, 3, 4, 5, 6, 7, 11, 14 days) using the same sandwich ELISA.

BMP-2: bone morphogenetic protein growth factor from recombinant sources (R&D Systems)
Smad 1 phosphorylation (SMAD-1, SMAD-1/5; BMP-2 bound to FN assembled on PEA): significantly increased
Phosphorylation of Smads 1/5 (SMAD-1, SMAD-1/5; BMP-2 sequestered on FN): significantly higher
alkaline phosphatase (ALP) activity [1]: higher
Smad 1 and 5 transcript level (SMAD-1, SMAD-5): not affected
phosphorylation of ERK1/2 (ERK 1/2): higher
co-immunoprecipitation of integrin β1 and BMP-2 receptors [2]: clusters of β1 integrins and BMP-2 receptors were formed
osteocalcin and osteonectin expression (transcription and protein levels) [3]: Significantly higher
BMP-2 released [4]: less than 10%
